# How the values were obtained:
# [1] = tested on: insulin receptor (IR); assay: Phosphotyrosine enzyme linked immunosorbent assay: pTyr on insulin receptor in NIH3T3 cells over-expressing human IR (H25 cells)
# [2] = tested on: primary adipocytes; assay: Primary adipocyte glucose uptake assay (14C glucose); conditions: test compound 50 mM without insulin, compared to samples containing only insulin (final concentration=100 μm)
Compound,"EC50 ([1]; read-out: ACTIVITY EC50, Table III, concentration that produces a 50% increase in the content of phosphotyrosine over the control) [µM]","one point determination, effect on PTYR ([1]; Table II, at 100 μm)",response in the primary adipocyte glucose uptake assay compared with the insulin control [2]
O=[N+]([O-])c1ccc(Cc2nnc(Sc3ncc([N+](=O)[O-])s3)s2)c([N+](=O)[O-])c1,94,,
5-Chloro-1-isopropyl-2-[(5-nitrothiazol-2-l)mercapto]benzimidazole,,no effect,did not give a response greater than or equal to the insulin control

# Source: US6080772A, “Thiazole compounds and methods of modulating signal transduction” (Sugen, Inc., priority 1997, dated 2000)
